## AlphaSeq binding of Ab-95 light chain variants to a spike HR2 peptide

Source: Engelhart et al. 2022 (doi:10.1038/s41597-022-01779-4), MIT Lincoln Laboratory and A-Alpha Bio; data file from the FLAb repository.

Target peptide (SARS-CoV-2 spike, HR2 region): PDVDLGDISGINAS

Ab-95 is the parent antibody, in scFv form: VH, then a (GGGGS)3 linker, then VL. The heavy chain is unchanged in all variants.
VH: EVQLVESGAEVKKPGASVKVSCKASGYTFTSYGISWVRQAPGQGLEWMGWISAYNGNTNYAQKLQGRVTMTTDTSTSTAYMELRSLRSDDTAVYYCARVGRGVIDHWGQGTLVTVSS
VL: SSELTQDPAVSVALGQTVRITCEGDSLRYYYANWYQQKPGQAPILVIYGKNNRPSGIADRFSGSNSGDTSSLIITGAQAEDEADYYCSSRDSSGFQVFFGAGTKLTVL

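The starting antibody came from a phage panning campaign against this peptide. AAYL52 was designed without a model: most single CDR substitutions and a random sample of double and triple ones. The scFvs were displayed on barcoded MATa yeast, the peptide on MATalpha yeast. Binding brings cells together so that they mate, and sequencing counts the barcode pairs among the diploids. A regression on co-assayed BCL2-family reference pairs converts the normalised counts of each replicate to an apparent Kd. Mating was done three times.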

Substitutions are numbered in sequence along the VL above, starting at 1 (not Kabat).
Each Kd is an estimate from the mating assay, the geometric mean of the replicates in which the pair was seen; lower is stronger.
"nd" marks a missing value. The strain was present, yet no cells mated with the target were sequenced in any replicate, which points to weak or no binding.
Empty control strains, which show no peptide, gave a signal in 28% of pairings with library AAYL52; the median was 8.2 µM and 95% of these signals were weaker than 800 nM. No background was subtracted. The control count says in how many pairings with the empty strains this scFv gave a signal.

changes | Kd (apparent) | seen in | signal with controls
R53D+S93G+G94W | 14 µM | 2 of 3 | 1 of 9
D25I+R53G+V97Q | nd | 0 of 3 | 4 of 9
G24M+K50A+V97E | nd | 0 of 3 | 2 of 9
R53T+P54H+S88Q | 5.2 µM | 3 of 3 | 3 of 9
L27K+S89A+F95M | 1.2 µM | 3 of 3 | 1 of 9
K50H+R53T+S88I | nd | 0 of 3 | 1 of 9
R28E+G49P+R90N | 15 µM | 3 of 3 | 2 of 9
A32G+N33K+N52Q | nd | 0 of 3 | 1 of 9
G24A+R90T+F95D | 1.2 µM | 2 of 3 | 0 of 9
L27C+G49Y+P54R | nd | 0 of 3 | 0 of 9
S89T+S92G+V97S | 150 nM | 3 of 3 | 0 of 9
P54H+F95L+F98W | 5.0 µM | 1 of 3 | 1 of 9
S26D+Y29R+N52I | 260 nM | 3 of 3 | 4 of 9
N52H+S89K+G94C | nd | 0 of 3 | 2 of 9
R53M+R90T+Q96E | 950 nM | 1 of 3 | 2 of 9
E23G+Y31C+F95E | 1.2 µM | 3 of 3 | 4 of 9
N33D+G49E+S55A | nd | 0 of 3 | 5 of 9
Y29N+N33E+R90S | 32 µM | 2 of 3 | 0 of 9
D25N+R28V+N51Y | 440 µM | 1 of 3 | 1 of 9
N52Q+P54H | 140 nM | 3 of 3 | 2 of 9
E23I+S93G+V97I | 4.1 µM | 2 of 3 | 2 of 9
G24Y+R90N | 16 µM | 1 of 3 | 2 of 9
R28V+S92A+G94E | 3.5 µM | 3 of 3 | 0 of 9
Y31T+S92V+G94N | 15 µM | 2 of 3 | 5 of 9
D25Y+R53D+R90S | 140 µM | 1 of 3 | 2 of 9
G24P+G94N | 5.5 µM | 2 of 3 | 2 of 9
N51V+P54C+Q96H | 27 µM | 2 of 3 | 7 of 9
G49D+V97E | nd | 0 of 3 | 0 of 9
D25T+Y29C+N52K | nd | 0 of 3 | 0 of 9
R53P+P54W+S55T | 13 µM | 2 of 3 | 2 of 9
S26R+N51W+F98T | nd | 0 of 3 | 0 of 9
S88R+S89P+R90S | 220 nM | 3 of 3 | 0 of 9
D25N+S26M+R28M | 410 nM | 3 of 3 | 3 of 9
Y30S+A32Y+R90I | nd | 0 of 3 | 0 of 9
E23K+D91K | 17 µM | 1 of 3 | 1 of 9
S93K+F95C | 950 nM | 3 of 3 | 5 of 9
D25N+R28G+G94M | 1.5 µM | 3 of 3 | 3 of 9
L27H+F98V | 420 nM | 1 of 3 | 0 of 9
S26V+R90V+Q96Y | 8.1 µM | 1 of 3 | 2 of 9
R53P+S93E+F95L | 36 µM | 3 of 3 | 3 of 9
D25G+Y31K+D91G | 27 µM | 2 of 3 | 3 of 9
E23Y+Y31F+S55R | 710 nM | 3 of 3 | 1 of 9
K50F+R53G+S89G | 4.1 µM | 1 of 3 | 2 of 9
N33I+F95T+F98I | 7.3 µM | 1 of 3 | 4 of 9
Y29F+N52G+F95M | 1.2 µM | 3 of 3 | 1 of 9
E23N+G24C+N52L | 1.8 µM | 3 of 3 | 2 of 9
K50P+S92L+V97H | 4.1 µM | 2 of 3 | 2 of 9
D25A+S26V+L27T | 970 nM | 3 of 3 | 4 of 9
Y29M+R53C+S92M | 13 µM | 3 of 3 | 4 of 9
R53N+P54I+S93W | 54 µM | 1 of 3 | 0 of 9
R90C+S92Y+F98S | 3.3 µM | 2 of 3 | 0 of 9
S55K+S92A+F98H | 390 nM | 3 of 3 | 4 of 9
D25R+S89G+V97A | 230 nM | 3 of 3 | 1 of 9
D25H+N51R+S88H | 1.4 µM | 1 of 3 | 3 of 9

From the list, the first 3 with no signal in any replicate:

changes,Kd (apparent),seen in,signal with controls
D25I+R53G+V97Q,nd,0 of 3,4 of 9
G24M+K50A+V97E,nd,0 of 3,2 of 9
K50H+R53T+S88I,nd,0 of 3,1 of 9